## Measured affinities in a library of Ab-14 heavy chain variants

Binding partner: SARS-CoV-2 spike HR2 peptide, sequence PDVDLGDISGINAS.

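Phage display of a naive human antibody library on the peptide gave the parent. Designed CDR sequences, proposed from the first random library and measured here. Several design methods are mixed in this list. The scFvs were displayed on barcoded MATa yeast, the peptide on MATalpha yeast. Mating (16 h, 30 °C) was followed by selection of diploids and sequencing of their barcodes. Each replicate has its own calibration line, from reference interactions of the BCL2 family. Each pool was mated in six replicate cultures.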

The variants keep the light chain, the linker and the frameworks of Ab-14 (scFv order VH, the linker GGGGSGGGGSGGGGS, VL).
VH: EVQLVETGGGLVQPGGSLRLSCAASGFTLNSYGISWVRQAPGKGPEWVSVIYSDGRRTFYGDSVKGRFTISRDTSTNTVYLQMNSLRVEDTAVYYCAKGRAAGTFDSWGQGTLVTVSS
VL: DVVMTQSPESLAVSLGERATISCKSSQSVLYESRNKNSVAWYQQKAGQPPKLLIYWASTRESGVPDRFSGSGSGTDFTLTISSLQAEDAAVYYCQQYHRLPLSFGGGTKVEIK

Positions count from residue 1 of the parent VH; T28D puts D in place of T. Variants here have at most six changes. Values are log10 of the apparent Kd in nM; lower means stronger binding. Averages over replicates are reported, and they cover detected replicates only. "nd" marks a missing value. The strain was present, yet no cells mated with the target were sequenced in that replicate, which points to weak or no binding. Entries are sorted by rising average, undetected variants last. The authors' rule: three or more of the six replicates give a measured affinity, fewer mean a poor binder. Values of this round are not directly comparable with the first-round values of the same sequences. Nonspecific signal, from three strains lacking the peptide, appeared in 1% of pairings of all heavy chain designs, centred on 2.08 (5% of these signals below 0.84); values are not corrected for it. The control count says in how many pairings with the empty strains this scFv gave a signal. The parent sequence was in this pool as ten entries: three were never detected, three once, and four in most replicates, with averages from 0.34 to 2.37.

For T28D/S63A/R100K/A101T, the assay gave -0.89, -0.72, -0.69, -0.35, -0.49, -0.04 (mean -0.53; controls 0 of 18). Variant T28D/S31T/A101Q gave -0.10, -0.32, -0.40, -0.17, 0.07, -0.40 (mean -0.22; controls 0 of 18). Variant I51M/G61T showed nd, -0.37, 0.45, nd, -0.55, nd (mean -0.16; controls 0 of 18). With T28S/S31D/R100S the result was 0.33, 0.04, -0.40, -0.24, -0.27, 0.24 (mean -0.05; controls 0 of 18). Variant T28S/G61D/R100Q/A101E showed 0.12, -0.07, -0.10, 0.05, -0.14, -0.05 (mean -0.03; controls 0 of 18). For T28Q/G61S/R100H/A101E, the assay gave 0.20, -0.11, -0.05, -0.13, 0.03, -0.09 (mean -0.02; controls 0 of 18). Variant G61A/R100K/A101E/S107A showed 0.15, -0.05, -0.16, -0.08, -0.13, 0.16 (mean -0.02; controls 1 of 18).

Variant T28D/G61A/A101V gave 0.14, -0.02, -0.04, 0.01, -0.11, 0.20 (mean 0.03; controls 2 of 18). With T28E/S31D/G61C/A101V the result was 0.25, -0.35, -0.01, 0.36, 0.08, 0.29 (mean 0.10; controls 0 of 18). Variant T28Q/S31E/A101T/S107F gave 0.56, 0.38, -0.10, 0.03, -0.13, 0.25 (mean 0.16; controls 0 of 18). For T28S/G61S/S63Q/A101T, the assay gave 0.35, 0.22, 0.17, 0.21, 0.41, 0.43 (mean 0.30; controls 0 of 18). With T28E/F59A/G61Q/R100K the result was 0.56, 0.16, 0.49, 0.08, 0.18, 0.83 (mean 0.38; controls 0 of 18). Variant T28S/S63Q/A101Q gave 0.11, -0.02, 1.40, 0.32, 0.21, 0.63 (mean 0.44; controls 0 of 18). Variant T28D/G61I/R100N/S107Q showed 0.80, 0.34, 0.80, -0.06, 0.43, 0.48 (mean 0.46; controls 2 of 18).

Variant A101L/S107P gave 1.01, 0.12, 0.31, nd, 0.67, 0.87 (mean 0.59; controls 0 of 18). Variant T28E/A101Q/S107T showed 1.15, 0.39, 0.43, 0.27, 0.76, 0.88 (mean 0.65; controls 2 of 18). With T28E/G61K/A101N the result was 0.59, 0.80, 1.41, 0.42, 0.92, 0.90 (mean 0.84; controls 1 of 18). For S31Q/R56H, the assay gave nd, 0.22, nd, 1.22, 1.35, 0.81 (mean 0.90; controls 0 of 18). Variant N30Q/S31D/A101M/S107Q gave nd, 0.16, nd, 0.88, 1.53, 1.12 (mean 0.92; controls 0 of 18). With N30K/S31D/T58E the result was nd, nd, nd, nd, 1.26, 0.68 (mean 0.97; controls 0 of 18). Variant F27T/F59A/S63R showed nd, 1.49, 1.44, 0.64, 0.43, nd (mean 1.00; controls 0 of 18).

Variant N30E/G61H/D106T gave 0.33, nd, nd, 0.36, 1.86, 2.08 (mean 1.16; controls 0 of 18). With T28D/G61K/A101V the result was nd, 0.80, 1.24, 1.30, 2.29, 1.23 (mean 1.37; controls 1 of 18). Variant T28S/S31E/F59Q/G61D gave nd, nd, nd, nd, 1.09, 2.05 (mean 1.57; controls 0 of 18). For S31E/A101Q/S107A, the assay gave 1.70, 1.14, nd, 1.11, 3.19, 1.88 (mean 1.81; controls 0 of 18). Variant G26K/T28D/G61C/A101E showed nd, 1.65, nd, 2.03, nd, nd (mean 1.84; controls 0 of 18). For N30S/S31D/F59Y/G61E/A101P, the assay gave nd, 2.08, 1.33, nd, 2.24, nd (mean 1.88; controls 0 of 18). With S31D/G61S/A101T/D106F the result was nd, nd, nd, nd, nd, 1.98 (controls 0 of 18).

Variant S31E/T58W/G61T/A101F showed nd, nd, 1.80, 2.14, nd, 2.51 (mean 2.15; controls 0 of 18). Variant N30E/S31N/R100T/A102S showed nd, 2.38, nd, nd, nd, nd (controls 0 of 18). Variant S31E/Y60T/G61T/G99T/A101F showed nd, nd, nd, nd, nd, nd (controls 0 of 18). For T58V/A101L/T104Y/S107T, the assay gave nd, nd, nd, nd, nd, nd (controls 1 of 18). Variant T28S/G33S/D106M gave nd, nd, nd, nd, nd, nd (controls 0 of 18). With S107C the result was nd, nd, nd, nd, nd, nd (controls 0 of 18). Variant S31E/I34W/Y52G/G103V/S107Q gave nd, nd, nd, nd, nd, nd (controls 0 of 18).

Variant T28S/S31E/A101T/D106M showed nd, nd, nd, nd, nd, nd (controls 0 of 18). Variant Y32Q/S63D/K65R/R100T/T104R showed nd, nd, nd, nd, nd, nd (controls 0 of 18). Variant F27E/A102R/T104Y/D106M gave nd, nd, nd, nd, nd, nd (controls 1 of 18).

From the list, the first 3 with no signal in any replicate:

S31E/Y60T/G61T/G99T/A101F: nd, nd, nd, nd, nd, nd (controls 0 of 18).
T58V/A101L/T104Y/S107T: nd, nd, nd, nd, nd, nd (controls 1 of 18).
T28S/G33S/D106M: nd, nd, nd, nd, nd, nd (controls 0 of 18).

Source: Li et al. 2023 (doi:10.1038/s41467-023-39022-2), MIT Lincoln Laboratory and A-Alpha Bio; data file from the FLAb repository.